Experimental data as given in patent US20240408072A1, “COMPOSITION FOR PREVENTING OR TREATING GRAVES' DISEASE COMPRISING COMPOUND CONTAINING AN IMIDAZOPYRIDINE STRUCTURE AS ACTIVE INGREDIENT” (ESGELBIO INC., priority 2021, published 2024).

Sequences of proteins named here, by UniProt entry; tags and fusion partners are left off. Residues count along the entry.
UniProt P05164, 49-745 limits assumed: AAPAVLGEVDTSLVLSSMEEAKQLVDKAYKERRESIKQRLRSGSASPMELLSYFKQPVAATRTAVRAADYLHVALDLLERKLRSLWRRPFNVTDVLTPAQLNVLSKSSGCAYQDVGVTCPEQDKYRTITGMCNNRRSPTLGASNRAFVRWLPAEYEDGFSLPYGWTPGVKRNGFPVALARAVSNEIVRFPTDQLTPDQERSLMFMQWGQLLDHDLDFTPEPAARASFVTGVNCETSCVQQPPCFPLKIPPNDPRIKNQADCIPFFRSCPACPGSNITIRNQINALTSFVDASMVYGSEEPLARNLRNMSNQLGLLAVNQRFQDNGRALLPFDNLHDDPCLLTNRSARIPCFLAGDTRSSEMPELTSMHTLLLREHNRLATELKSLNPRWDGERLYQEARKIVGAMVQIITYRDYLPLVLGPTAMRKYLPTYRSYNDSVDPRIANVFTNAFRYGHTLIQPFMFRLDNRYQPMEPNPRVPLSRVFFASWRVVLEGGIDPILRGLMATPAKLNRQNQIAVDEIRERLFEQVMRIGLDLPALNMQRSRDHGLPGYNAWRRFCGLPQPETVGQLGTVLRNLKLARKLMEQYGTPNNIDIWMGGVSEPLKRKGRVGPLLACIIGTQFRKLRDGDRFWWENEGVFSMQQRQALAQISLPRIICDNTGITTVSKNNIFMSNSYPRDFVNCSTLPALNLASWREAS
UniProt P07202, 19-933 limits assumed: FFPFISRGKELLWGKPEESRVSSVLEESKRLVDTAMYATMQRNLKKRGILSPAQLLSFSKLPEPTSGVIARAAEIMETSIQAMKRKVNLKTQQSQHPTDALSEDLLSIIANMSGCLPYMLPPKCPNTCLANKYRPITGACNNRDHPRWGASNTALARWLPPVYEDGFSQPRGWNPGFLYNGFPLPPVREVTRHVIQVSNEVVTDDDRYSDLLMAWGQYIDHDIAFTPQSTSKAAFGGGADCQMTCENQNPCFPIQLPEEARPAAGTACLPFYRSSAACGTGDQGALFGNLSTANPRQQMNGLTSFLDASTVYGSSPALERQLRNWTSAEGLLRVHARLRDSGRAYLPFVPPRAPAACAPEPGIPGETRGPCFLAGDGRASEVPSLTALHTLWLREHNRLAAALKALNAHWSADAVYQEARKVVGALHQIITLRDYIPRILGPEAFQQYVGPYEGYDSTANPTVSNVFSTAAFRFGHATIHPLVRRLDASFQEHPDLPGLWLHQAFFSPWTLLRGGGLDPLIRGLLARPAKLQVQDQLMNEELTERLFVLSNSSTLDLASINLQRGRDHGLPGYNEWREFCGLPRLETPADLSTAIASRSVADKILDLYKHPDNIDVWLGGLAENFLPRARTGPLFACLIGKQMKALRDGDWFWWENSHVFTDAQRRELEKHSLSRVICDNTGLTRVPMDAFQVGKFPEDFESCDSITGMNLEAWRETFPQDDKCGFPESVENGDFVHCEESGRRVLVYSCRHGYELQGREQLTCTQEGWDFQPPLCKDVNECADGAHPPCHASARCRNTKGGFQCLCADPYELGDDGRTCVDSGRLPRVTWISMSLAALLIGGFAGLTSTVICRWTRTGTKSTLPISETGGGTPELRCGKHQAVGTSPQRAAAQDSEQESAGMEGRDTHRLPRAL

Columns and labels:
Assay type in all cases: biochemical
Human MPO = Human MPO (Homo sapiens (Human), UniProt P05164); assay: Myeloperoxidase (MPO) inhibition IC50 screening; conditions: read-out: IC50 (uM) MPO; Table 3
thyroid peroxidase (TPO) = thyroid peroxidase (TPO) (Homo sapiens (Human), UniProt P07202); assay: Thyroid peroxidase (TPO) inhibition IC50; conditions: read-out: IC50 (uM) TPO; Table 3
LPO = LPO (Bos taurus, UniProt P80025); assay: LPO inhibition IC50; conditions: Table 3

IC50 (Human MPO): 1.83 µM | IC50 (thyroid peroxidase (TPO)): 0.13 µM | IC50 (uM) LPO (LPO): n.s.
SMILES: COc1ccc2c(c1)c(-c1csc(NC(=O)C3CC(=O)OC3(C)C)n1)c(C)n2C (stereo not drawn)
